Assay results published in US20100234592A1, “Corrosion Inhibitors Having Increased Biodegradability and Reduced Toxicity” (priority 2006, published 2010).

Assays:
Shaking foam test = type: physicochemical; settings: 50 ml of a 3% aqueous solution in demineralized water shaken 20 times within 10 seconds; graded weakly foaming, foaming or highly foaming
[1] = Biodegradability (OECD 306)

## N-Cocoyl-DL-methionine N,N-diethyl-(2-hydroxyethyl)-ammonium salt [compound from example 6]
Shaking foam test
  Foaming behavior: foaming
[1]
  Biodegradability: 81.5%

## N-Cocoyl-DL-methionine morpholinium salt [compound from example 5]
Shaking foam test
  Foaming behavior: foaming
